PMC4216168, “Ligand Binding and Activation of PPARγ by Firemaster® 550: Effects on Adipogenesis and Osteogenesis in Vitro” (Environmental Health Perspectives, 2014)

Chains of the proteins cited; added tags and fusions are not shown. Residues count along the entry.
UniProt P37231, 29-505: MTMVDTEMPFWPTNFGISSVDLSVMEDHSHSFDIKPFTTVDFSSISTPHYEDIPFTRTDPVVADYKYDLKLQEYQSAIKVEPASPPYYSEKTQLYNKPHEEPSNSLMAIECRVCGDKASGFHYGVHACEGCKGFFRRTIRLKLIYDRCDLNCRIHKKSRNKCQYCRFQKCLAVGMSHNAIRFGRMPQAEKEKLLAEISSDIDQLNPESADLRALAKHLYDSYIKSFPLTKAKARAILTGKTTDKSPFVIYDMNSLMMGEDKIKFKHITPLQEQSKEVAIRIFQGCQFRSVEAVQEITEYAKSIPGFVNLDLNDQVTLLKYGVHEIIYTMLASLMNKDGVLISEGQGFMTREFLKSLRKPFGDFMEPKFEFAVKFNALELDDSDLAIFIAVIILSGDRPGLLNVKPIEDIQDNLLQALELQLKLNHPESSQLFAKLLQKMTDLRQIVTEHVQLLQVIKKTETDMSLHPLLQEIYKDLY

Target: human PPARγ1 (Homo sapiens, UniProt P37231)
Test: PPRE-luciferase reporter assay in Cos-7 cells transfected with human PPARG1 and RXRA
Type: cell-based
Conditions: fold-change from DN-control, 24 hr; rosiglitazone at 1 μM
From the text: Reporter assays. Cos-7 cells were transiently transfected with vectors containing human PPARG1 (provided by V.K. Chatterjee, University of Cambridge, Cambridge, UK) ([Gurnell et al. 2000]) and human RXRA (plasmid 8882; Addgene, Cambridge, MA) ([Tontonoz et al. 1994]), with PPRE x3-TK-luc (plasmid 1015; Addgene) ([Kim et al. 1998]) and CMV-eGFP reporter constructs using Lipofectamine2000 (Invitrogen). Cultures were cotransfected with either pcDNA3 (Invitrogen) or dominant negative human PPARG (PPARγ-DN; provided by V.K. Chatterjee). […] After 24 hr incubation, cells were lysed in Glo Lysis Buffer and mixed with Bright Glo reagent (both from Promega, Madison, WI). […] Luminescence was normalized by GFP (green fluorescent protein) fluorescence in the same well. The normalized luminescence for each well was then divided by the normalized luminescence measured in control DN-PPARγ–transfected wells to determine the fold-change from DN-control.

## CN(CCOc1ccc(CC2SC(=O)NC2=O)cc1)c1ccccn1 (stereo not shown) [rosiglitazone, reference compound]
  maximal PPARγ-driven reporter activity: 11.3 ± 0.9 fold and 11.3 ± 0.6 fold

“And” between values parts separate entries of the source, which are not always exact repeats. Identical values can stand only once.
